Measured values taken from patent US20080090770A1 (published 2008).

By UniProt entry, the sequences of proteins in these tests, tags left out. Where a name states a change or a piece, a line headed by the entry shows the natural chain unless it says otherwise. Chains listed by the source or under a name are the forms on record and can include a tag or linker.
UniProt Q6P0Q8, other isoform, or with tags, fused parts or gaps: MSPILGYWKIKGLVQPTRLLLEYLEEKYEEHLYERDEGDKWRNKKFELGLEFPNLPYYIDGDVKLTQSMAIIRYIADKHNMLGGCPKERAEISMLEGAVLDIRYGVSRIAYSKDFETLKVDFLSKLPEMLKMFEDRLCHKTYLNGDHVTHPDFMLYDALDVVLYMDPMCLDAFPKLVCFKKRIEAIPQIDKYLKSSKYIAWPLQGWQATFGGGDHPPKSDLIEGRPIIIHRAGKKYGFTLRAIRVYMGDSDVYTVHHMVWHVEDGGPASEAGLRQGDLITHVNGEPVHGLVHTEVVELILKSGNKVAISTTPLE
UniProt Q9H190: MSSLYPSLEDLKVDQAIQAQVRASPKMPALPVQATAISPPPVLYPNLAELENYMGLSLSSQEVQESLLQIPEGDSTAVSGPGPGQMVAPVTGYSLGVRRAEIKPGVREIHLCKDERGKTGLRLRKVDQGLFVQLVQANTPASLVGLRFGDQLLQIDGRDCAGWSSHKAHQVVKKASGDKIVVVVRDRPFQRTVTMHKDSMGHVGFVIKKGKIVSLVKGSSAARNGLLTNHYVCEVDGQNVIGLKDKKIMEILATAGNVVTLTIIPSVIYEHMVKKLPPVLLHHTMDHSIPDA

B1: MUC1 C-terminus peptide NGGSSLSYTNPAVAATSANL (SEQ ID NO: 96) (peptide)
peptide: NGGSSLSYTNPAVAATSANL
modifications: biotinylated (position not given)
notes: also called C-terminus of MUC1; MUC1 peptide
B2: YGRKKRRQRRRAVAATSANL (SEQ ID NO: 134) (peptide)
peptide: YGRKKRRQRRRAVAATSANL
modifications: biotinylated (position not given)
notes: also called TAT-MUC1; biotinylated TAT-MUC1 derived peptide

How the values were obtained:
[1] = biological target: T1, GST-AIPC PDZ domain 1 (human); experiment: modified ELISA, GST-PDZ captured by anti-GST, biotinylated MUC1 peptide titrated, HRP-streptavidin
T1 construct: also called AIPC1

[2] = biological target: T2, GST-MAST d2 PDZ domain (human, UniProt Q6P0Q8 1104-1192); experiment: as above
T2 construct: domain: PDZ; also called MAST2

[3] = biological target: GST-SITAC 18 PDZ domain (human, UniProt Q9H190); experiment: as above
[4] = biological target: T3, GST-SIP1 PDZ domain 1 (human); experiment: as above
T3 construct: also called SIP1 d1

[5] = biological target: T4, GST-RIM2 (KIAA0751) PDZ domain 1 (human); experiment: as above
T4 construct: Construct RIM2, PDZ domain 1-pGEX-3X; vector sites BamH1/EcoR1, insert sites BglII/MfeI; also called GST-RIM2 PDZ domain; RIM3 (as printed once)

[6] = biological target: T5, GST-KIAA1526 PDZ domain 1 (human); experiment: as above
T5 construct: also called KIAA1526 d1

[7] = biological target: T6, GST-NSP PDZ domain (human); experiment: as above
T6 construct: also called Novel Serine Protease

[8] = biological target: T7, GST-prIL16 PDZ domain 1 (human); experiment: as above
T7 construct: also called Pril-16 d1; PRIL-16 d1

[9] = biological target: T8, GST-ZO-1 PDZ domain 2 (human); experiment: as above
T8 construct: also called ZO-1 d2; ZO1 d2

[10] = biological target: T4, GST-RIM2 (KIAA0751) PDZ domain 1; experiment: modified ELISA, plated GST-RIM2 PDZ domain, biotinylated peptide 0.001-10 µM, curve fit; Relative EC50

| Binder | EC50 [1] [nM] | EC50 [2] [nM] | EC50 [3] [nM] | EC50 [4] [nM] | EC50 [5] [nM] | EC50 [6] [nM] | EC50 [7] [nM] | EC50 [8] [nM] | EC50 [9] [nM] | EC50 [10] [nM] |
| --- | --- | --- | --- | --- | --- | --- | --- | --- | --- | --- |
| B1 | 14 | 39 | 26 | 11 | 16 | 51 | 27 | 41 | 19 | – |
| B2 | – | – | – | – | – | – | – | – | – | 65 |
